Measurements as given in ChEMBL document CHEMBL1135805, “C-7 analogues of progesterone as potent inhibitors of the P-glycoprotein efflux pump” (J Med Chem, 2002).

Protein sequences, listed by entry. Tags and fused reporters are not part of them.
UniProt P08183, whole entry: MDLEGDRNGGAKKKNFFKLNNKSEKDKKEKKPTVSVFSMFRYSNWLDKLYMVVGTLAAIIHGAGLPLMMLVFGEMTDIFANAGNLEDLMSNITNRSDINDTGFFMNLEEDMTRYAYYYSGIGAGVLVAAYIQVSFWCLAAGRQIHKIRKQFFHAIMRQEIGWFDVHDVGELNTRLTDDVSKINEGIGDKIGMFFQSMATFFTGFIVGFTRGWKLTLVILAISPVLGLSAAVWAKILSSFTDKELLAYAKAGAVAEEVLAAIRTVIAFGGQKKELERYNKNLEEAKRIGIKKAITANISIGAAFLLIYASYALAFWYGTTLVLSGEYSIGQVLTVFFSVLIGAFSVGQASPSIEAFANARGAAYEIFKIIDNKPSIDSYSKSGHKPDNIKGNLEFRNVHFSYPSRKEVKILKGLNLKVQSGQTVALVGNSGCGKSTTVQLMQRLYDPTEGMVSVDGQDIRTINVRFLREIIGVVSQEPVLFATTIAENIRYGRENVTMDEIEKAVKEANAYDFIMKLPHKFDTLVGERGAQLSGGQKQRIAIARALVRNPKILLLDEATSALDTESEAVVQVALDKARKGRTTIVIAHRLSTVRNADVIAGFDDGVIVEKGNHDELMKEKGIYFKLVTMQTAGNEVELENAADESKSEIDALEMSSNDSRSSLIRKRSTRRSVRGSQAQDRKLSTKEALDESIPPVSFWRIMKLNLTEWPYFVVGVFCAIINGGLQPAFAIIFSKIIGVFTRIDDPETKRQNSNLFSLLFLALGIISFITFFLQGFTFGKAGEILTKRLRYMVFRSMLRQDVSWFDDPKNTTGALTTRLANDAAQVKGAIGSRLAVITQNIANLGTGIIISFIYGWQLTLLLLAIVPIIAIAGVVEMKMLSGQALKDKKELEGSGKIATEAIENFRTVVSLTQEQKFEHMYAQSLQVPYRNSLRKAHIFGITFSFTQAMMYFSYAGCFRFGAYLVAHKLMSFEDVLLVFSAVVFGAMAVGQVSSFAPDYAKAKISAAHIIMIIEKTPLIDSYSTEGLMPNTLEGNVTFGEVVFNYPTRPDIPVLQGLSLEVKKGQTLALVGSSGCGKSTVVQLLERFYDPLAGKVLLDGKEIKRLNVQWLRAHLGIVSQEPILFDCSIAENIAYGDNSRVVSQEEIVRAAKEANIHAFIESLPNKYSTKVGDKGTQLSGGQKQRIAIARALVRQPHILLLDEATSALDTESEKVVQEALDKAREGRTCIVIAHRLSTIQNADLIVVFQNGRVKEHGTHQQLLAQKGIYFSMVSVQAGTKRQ

Tests used:
Breast cancer cell line = test: Concentration that reduces difference in reversal of [3H]VBL accumulation between MDA-435/LCC6 and MDA-435/LCC6-MDRI cells by 50%; assay type: functional, cell-based; settings: Homo sapiens
[1] = target: ATP-dependent translocase ABCB1 (Homo sapiens, UniProt P08183); test: TP_TRANSPORTER: reversal of Vinblastine accumulation (Vinblastine: 0.005 uM) in MDA435/LCC6 MDR1 cells; assay type: functional, cell-based, MDA-MB-435/LCC6 MDR1

`C/C=C/C[C@@H](C)[C@@H](O)[C@H]1C(=O)N[C@@H](CC)C(=O)N(C)CC(=O)N(C)[C@@H](CC(C)C)C(=O)N[C@@H](C(C)C)C(=O)N(C)[C@@H](CC(C)C)C(=O)N[C@@H](C)C(=O)N[C@H](C)C(=O)N(C)[C@@H](CC(C)C)C(=O)N(C)[C@@H](CC(C)C)C(=O)N(C)[C@@H](C(C)C)C(=O)N1C` [CYCLOSPORINE] gave an EC50 (Breast cancer cell line) of 0.6 µM.
With `CC(=O)[C@H]1CC[C@H]2[C@@H]3CCC4=CC(=O)CC[C@]4(C)[C@H]3CC[C@]12C` [PROGESTERONE] the EC50 [1] was 21.2 µM.
